Drawing on US7192924B2, “Corticotropin releasing factor 2 receptor agonists” (priority 2002, dated 2007), this text covers EC50 for 6 compounds.

Where two headings read alike, the source gives them in different places.

One assay concerns the target T1, CRF2R (Homo sapiens, UniProt Q13324).
T1 sequence (Q13324 1-411): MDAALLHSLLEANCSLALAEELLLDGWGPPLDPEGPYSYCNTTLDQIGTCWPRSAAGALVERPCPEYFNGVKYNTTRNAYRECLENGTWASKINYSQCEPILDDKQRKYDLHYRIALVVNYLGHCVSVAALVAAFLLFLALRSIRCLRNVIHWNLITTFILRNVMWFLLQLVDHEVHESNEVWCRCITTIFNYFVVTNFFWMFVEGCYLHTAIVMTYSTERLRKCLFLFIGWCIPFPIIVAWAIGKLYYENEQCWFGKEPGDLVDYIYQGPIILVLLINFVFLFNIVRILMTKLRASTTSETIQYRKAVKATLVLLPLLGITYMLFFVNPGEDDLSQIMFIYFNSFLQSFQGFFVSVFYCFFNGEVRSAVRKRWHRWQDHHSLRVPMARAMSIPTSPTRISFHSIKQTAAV
Briefly: CRF2R agonist activity (EC50, Emax), called comparative CRF binding. It counts as cell-based. An outline of the steps:
(§1)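 Recombinant CRF1R or CRF2R cells were exposed to peptide. Reporter expression linked to cAMP response element was then quantitated, relative to vehicle control.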

In a further assay the target is T2, CRF1R (Homo sapiens, UniProt P34998).
T2 sequence (P34998 24-415): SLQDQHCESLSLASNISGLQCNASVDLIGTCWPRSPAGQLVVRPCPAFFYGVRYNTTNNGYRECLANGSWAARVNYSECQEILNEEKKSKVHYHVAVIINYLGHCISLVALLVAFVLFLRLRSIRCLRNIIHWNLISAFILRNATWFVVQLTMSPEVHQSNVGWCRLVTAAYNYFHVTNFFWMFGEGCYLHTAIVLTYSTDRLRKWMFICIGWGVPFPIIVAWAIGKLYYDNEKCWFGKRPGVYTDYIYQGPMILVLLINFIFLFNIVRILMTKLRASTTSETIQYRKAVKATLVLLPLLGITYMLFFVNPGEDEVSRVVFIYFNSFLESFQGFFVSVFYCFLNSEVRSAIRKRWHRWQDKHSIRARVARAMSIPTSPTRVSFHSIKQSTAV
Briefly: CRF1R agonist activity (EC50, Emax), called comparative CRF binding. In kind it is cell-based. An outline of the steps: as §1

As to `CC[C@H](C)[C@H](NC(=O)[C@@H](NC(=O)[C@H](C)NC(=O)[C@H](CC(C)C)NC(=O)[C@H](CC(C)C)NC(=O)[C@H](CC(C)C)NC(=O)[C@H](C)NC(=O)[C@H](CC(N)=O)NC(=O)[C@H](CC(N)=O)NC(=O)[C@H](C)NC(=O)[C@H](C)NC(=O)[C@H](CCC(N)=O)NC(=O)[C@H](CCC(N)=O)NC(=O)[C@H](CCCCN)NC(=O)[C@H](CCC(=O)O)NC(=O)[C@H](CCCCN)NC(=O)[C@H](CCC(=O)O)NC(=O)[C@H](CCC(N)=O)NC(=O)[C@H](CCCCN)NC(=O)[C@H](CCC(=O)O)NC(=O)[C@@H](NC(=O)[C@H](CCC(=O)O)NC(=O)[C@@H](NC(=O)[C@H](CCSC)NC(=O)[C@H](CCCCN)NC(=O)[C@H](CCCNC(=N)N)NC(=O)[C@H](CC(C)C)NC(=O)[C@H](CC(C)C)NC(=O)[C@H](Cc1ccc(O)cc1)NC(=O)[C@H](Cc1ccc(O)cc1)NC(=O)[C@@H]1CCCN1C(=O)[C@H](CC(C)C)NC(=O)[C@H](CC(=O)O)NC(=O)[C@@H](NC(=O)[C@H](CO)NC(=O)[C@@H](NC(=O)[C@@H]1CCCN1C(=O)[C@@H]1CCCN1C(=O)CNC(=O)[C@@H]1CCC(=O)N1)[C@@H](C)CC)[C@@H](C)CC)[C@@H](C)CC)[C@@H](C)CC)[C@@H](C)O)C(N)=O` [compound 225], the EC50 (as a rule, the concentration at which the effect is half-maximal) at CRF2R amounted to 4.8 nM; at CRF1R, 219 nM.

As for `CC[C@H](C)[C@H](NC(=O)[C@@H](NC(=O)[C@H](C)NC(=O)[C@H](CC(C)C)NC(=O)[C@H](CC(C)C)NC(=O)[C@H](CC(C)C)NC(=O)[C@H](C)NC(=O)[C@H](CC(N)=O)NC(=O)[C@H](CC(N)=O)NC(=O)[C@H](C)NC(=O)[C@H](C)NC(=O)[C@H](CCC(N)=O)NC(=O)[C@H](CCC(N)=O)NC(=O)[C@H](CCCCN)NC(=O)[C@H](CCC(=O)O)NC(=O)[C@H](CCCCN)NC(=O)[C@H](CCC(=O)O)NC(=O)[C@H](CCC(N)=O)NC(=O)[C@H](CCCCN)NC(=O)[C@H](CCC(=O)O)NC(=O)[C@@H](NC(=O)[C@H](CCC(=O)O)NC(=O)[C@@H](NC(=O)[C@H](CCSC)NC(=O)[C@H](CCCCN)NC(=O)[C@H](CCCNC(=N)N)NC(=O)[C@H](CC(C)C)NC(=O)[C@H](CC(C)C)NC(=O)[C@H](Cc1c[nH]cn1)NC(=O)[C@H](Cc1ccccc1)NC(=O)[C@@H]1CCCN1C(=O)[C@H](CC(C)C)NC(=O)[C@H](CC(=O)O)NC(=O)[C@@H](NC(=O)[C@H](CO)NC(=O)[C@@H](NC(=O)[C@@H]1CCCN1C(=O)[C@@H]1CCCN1C(=O)CNC(=O)[C@@H]1CCC(=O)N1)[C@@H](C)CC)[C@@H](C)CC)[C@@H](C)CC)[C@@H](C)CC)[C@@H](C)O)C(N)=O` [compound 229], the EC50 at CRF2R is 10.3 nM; on CRF1R, 298 nM.

Consider `CC[C@H](C)[C@H](NC(=O)[C@@H](NC(=O)[C@H](C)NC(=O)[C@H](CC(C)C)NC(=O)[C@H](CC(C)C)NC(=O)[C@H](CC(C)C)NC(=O)[C@H](C)NC(=O)[C@H](CC(N)=O)NC(=O)[C@H](CC(N)=O)NC(=O)[C@H](C)NC(=O)[C@H](C)NC(=O)[C@H](CCC(N)=O)NC(=O)[C@H](CCC(N)=O)NC(=O)[C@H](CCCCN)NC(=O)[C@H](CCC(=O)O)NC(=O)[C@H](CCCCN)NC(=O)[C@H](CCC(=O)O)NC(=O)[C@H](CCC(N)=O)NC(=O)[C@H](CCCCN)NC(=O)[C@H](CCC(=O)O)NC(=O)[C@@H](NC(=O)[C@H](CCC(=O)O)NC(=O)[C@@H](NC(=O)[C@H](CCSC)NC(=O)[C@H](CCCCN)NC(=O)[C@H](CCCNC(=N)N)NC(=O)[C@H](CC(C)C)NC(=O)[C@H](CC(C)C)NC(=O)[C@H](Cc1ccc(O)cc1)NC(=O)[C@H](Cc1ccccc1)NC(=O)[C@@H]1CCCN1C(=O)[C@H](CC(C)C)NC(=O)[C@H](CC(=O)O)NC(=O)[C@@H](NC(=O)[C@H](CO)NC(=O)[C@@H](NC(=O)[C@@H]1CCCN1C(=O)[C@@H]1CCCN1C(=O)CNC(=O)[C@@H]1CCC(=O)N1)[C@@H](C)CC)[C@@H](C)CC)[C@@H](C)CC)[C@@H](C)CC)[C@@H](C)O)C(N)=O` [compound 231], for which the results for the EC50 on CRF2R and at CRF1R were 5.9 nM and 94 nM, respectively.

For the compound `CC[C@H](C)[C@H](NC(=O)[C@@H](NC(=O)[C@H](C)NC(=O)[C@H](CC(C)C)NC(=O)[C@H](CC(C)C)NC(=O)[C@H](CC(C)C)NC(=O)[C@H](C)NC(=O)[C@H](CC(N)=O)NC(=O)[C@H](CC(N)=O)NC(=O)[C@H](C)NC(=O)[C@H](C)NC(=O)[C@H](CCC(N)=O)NC(=O)[C@H](CCC(N)=O)NC(=O)[C@H](CCCCN)NC(=O)[C@H](CCC(=O)O)NC(=O)[C@H](CCCCN)NC(=O)[C@H](CCC(=O)O)NC(=O)[C@H](CCC(N)=O)NC(=O)[C@H](CCCCN)NC(=O)[C@H](CCC(=O)O)NC(=O)[C@@H](NC(=O)[C@H](CCC(=O)O)NC(=O)[C@@H](NC(=O)[C@H](CCSC)NC(=O)[C@H](CCCCN)NC(=O)[C@H](CCCNC(=N)N)NC(=O)[C@H](CC(C)C)NC(=O)[C@H](CC(C)C)NC(=O)[C@H](Cc1ccc(O)cc1)NC(=O)[C@@H](NC(=O)[C@@H]1CCCN1C(=O)[C@H](CC(C)C)NC(=O)[C@H](CC(=O)O)NC(=O)[C@@H](NC(=O)[C@H](CO)NC(=O)[C@@H](NC(=O)[C@@H]1CCCN1C(=O)[C@@H]1CCCN1C(=O)CNC(=O)[C@@H]1CCC(=O)N1)[C@@H](C)CC)[C@@H](C)CC)[C@@H](C)O)[C@@H](C)CC)[C@@H](C)CC)[C@@H](C)O)C(N)=O` [compound 233], the EC50 is 46.1 nM on CRF2R (read-out: CRF2R EC50) and at least 1000 nM on CRF1R (read-out: CRF1R EC50).

As for `CC[C@H](C)[C@H](NC(=O)[C@@H](NC(=O)[C@H](CC(=O)O)NC(=O)[C@H](CC(C)C)NC(=O)[C@H](CC(C)C)NC(=O)[C@H](CC(C)C)NC(=O)[C@H](C)NC(=O)[C@H](CC(N)=O)NC(=O)[C@H](CC(N)=O)NC(=O)[C@H](C)NC(=O)[C@H](C)NC(=O)[C@H](CCC(N)=O)NC(=O)[C@H](CCC(N)=O)NC(=O)[C@H](CCCCN)NC(=O)[C@H](CCC(=O)O)NC(=O)[C@H](CCCCN)NC(=O)[C@H](CCC(=O)O)NC(=O)[C@H](CCC(N)=O)NC(=O)[C@H](CCCCN)NC(=O)[C@H](CCC(=O)O)NC(=O)[C@@H](NC(=O)[C@H](CCC(=O)O)NC(=O)[C@@H](NC(=O)[C@H](CCSC)NC(=O)[C@H](CCCCN)NC(=O)[C@H](CCCNC(=N)N)NC(=O)[C@H](CC(C)C)NC(=O)[C@H](CC(C)C)NC(=O)[C@H](Cc1ccc(O)cc1)NC(=O)[C@@H](NC(=O)[C@@H]1CCCN1C(=O)[C@H](CC(C)C)NC(=O)[C@H](CC(=O)O)NC(=O)[C@@H](NC(=O)[C@H](CO)NC(=O)[C@@H](NC(=O)[C@@H]1CCCN1C(=O)[C@@H]1CCCN1C(=O)CNC(=O)[C@@H]1CCC(=O)N1)[C@@H](C)CC)[C@@H](C)CC)[C@@H](C)CC)[C@@H](C)CC)[C@@H](C)CC)[C@@H](C)O)C(N)=O` [compound 236], the EC50 is 40.4 nM at CRF2R (read-out: CRF2R EC50) and at least 1000 nM at CRF1R (read-out: CRF1R EC50).

For the compound `CC[C@H](C)[C@H](NC(=O)[C@@H](NC(=O)[C@H](C)NC(=O)[C@H](CC(C)C)NC(=O)[C@H](CC(C)C)NC(=O)[C@H](CC(C)C)NC(=O)[C@H](C)NC(=O)[C@H](CC(N)=O)NC(=O)[C@H](CC(N)=O)NC(=O)[C@H](C)NC(=O)[C@H](C)NC(=O)[C@H](CCC(N)=O)NC(=O)[C@H](CCC(N)=O)NC(=O)[C@H](CCCCN)NC(=O)[C@H](CCC(=O)O)NC(=O)[C@H](CCCCN)NC(=O)[C@H](CCC(=O)O)NC(=O)[C@H](CCC(N)=O)NC(=O)[C@H](CCCCN)NC(=O)[C@H](CCC(=O)O)NC(=O)[C@@H](NC(=O)[C@H](CCC(=O)O)NC(=O)[C@@H](NC(=O)[C@H](CCSC)NC(=O)[C@H](CCCCN)NC(=O)[C@H](CCCNC(=N)N)NC(=O)[C@H](CC(C)C)NC(=O)[C@H](CC(C)C)NC(=O)[C@H](Cc1ccc(O)cc1)NC(=O)[C@@H](NC(=O)[C@@H]1CCCN1C(=O)[C@H](CC(C)C)NC(=O)[C@H](CC(=O)O)NC(=O)[C@@H](NC(=O)[C@H](CO)NC(=O)[C@@H](NC(=O)[C@@H]1CCCN1C(=O)[C@@H]1CCCN1C(=O)CNC(=O)[C@@H]1CCC(=O)N1)[C@@H](C)CC)[C@@H](C)CC)[C@@H](C)CC)[C@@H](C)CC)[C@@H](C)CC)[C@@H](C)O)C(N)=O` [compound 237], the EC50 on CRF2R was 22.2 nM; at CRF1R, at least 1000 nM.
